Laboratory results as given in PubChem BioAssay AID588855 (National Center for Advancing Translational Sciences (NCATS), 2011).
In all, about 410,000 compounds went through this assay and about 5,000 (1.2%) were called active. These results got no clear call from the source, so the numbers are uncertain. The call rests on the fitted dose curve; in most records, active means well fitted inhibition curve with a large enough effect; inconclusive means small, poorly fitted or top-dose-only effect; inactive means no such curve, though single readings can be large or run the other way.
Potency means the concentration at half of the fitted maximal effect.

Assay: qHTS for Inhibitors of TGF-b; further: nearly all actives have a fitted effect of over 65% in size
Settings: HepG2 CAGA-GFP TGF-b/SMAD3 reporter, GFP fluorescence, 18 h; TGF-beta stimulated, 500 pg/mL final
For `CCC1=CC2Cc3nc4ccc(Cl)cc4c(N)c3C(C1)C2` (stereo not drawn), the Potency was inconclusive: 15.8 µM. For `COc1cc([N+](=O)[O-])ccc1[N+](=O)[O-]`, the Potency was inconclusive: 8.91 µM. In the case of `Cc1ccc(C(=O)OC2CN3CCC2CC3)cc1` (stereo not drawn), the Potency is reported as inconclusive: 22.4 µM. In the case of `Nc1ccccc1[As](=O)(O)c1ccccc1`, the Potency is reported as inconclusive: 22.4 µM. For `CN(C)C(=O)c1cc([N+](=O)[O-])cc2c1-c1c(cc([N+](=O)[O-])cc1[N+](=O)[O-])C2=O`, the Potency was inconclusive: 11.2 µM. With `O=[N+]([O-])c1cc(Oc2ccc([N+](=O)[O-])cc2C(F)(F)F)cc([N+](=O)[O-])c1` the Potency was inconclusive: 35.5 µM. In the case of `O=[N+]([O-])c1ccc(-c2cc([N+](=O)[O-])c(O)c([N+](=O)[O-])c2)cc1`, the Potency is reported as inconclusive: 12.6 µM. In the case of `CCCCOc1ccc(C(=O)NCC2(N3CCCCC3)CCCCC2)cc1OC`, the Potency is reported as inconclusive: 31.6 µM. In the case of `O=C(O)C(=O)c1ccc(N(CCCl)CCCl)cc1`, the Potency is reported as inconclusive: 0.112 µM. In the case of `O=C(Nc1ccncc1[N+](=O)[O-])c1ccc([N+](=O)[O-])cc1[N+](=O)[O-]`, the Potency is reported as inconclusive: 28.2 µM. In the case of `CSc1ccc(Nc2c([N+](=O)[O-])cc([N+](=O)[O-])cc2[N+](=O)[O-])cc1`, the Potency is reported as inconclusive: 7.94 µM. With `COc1ccc(C2=NCC(CBr)S2)cc1` (stereo not drawn) the Potency was inconclusive: 35.5 µM. With `COc1cc([N+](=O)[O-])c([N+](=O)[O-])cc1OC` the Potency was inconclusive: 35.5 µM. With `O=P1(N(CCCl)CCCl)OCCCS1` (stereo not drawn) the Potency was inconclusive: 5.62 µM. In the case of `O=C(O)CNc1ccc([As](=O)(O)O)cc1`, the Potency is reported as inconclusive: 14.1 µM. In the case of `O=P(Nc1nc2ccc(Cl)cc2s1)(c1ccccc1)c1ccccc1`, the Potency is reported as inconclusive: 35.5 µM. For `CC(C)(C)C(=O)NC(Sc1ccccc1)C(Cl)(Cl)Cl` (stereo not drawn), the Potency was inconclusive: 14.1 µM. For `N#C/C(=C\c1ccc(N(CCBr)CCBr)cc1)C(N)=O`, the Potency was inconclusive: 11.2 µM. For `Cc1ccc(OP(=O)(Nc2ccccn2)Oc2ccc(C)cc2)cc1`, the Potency was inconclusive: 35.5 µM. For `O=P(Nc1ccccn1)(c1ccc(Br)cc1)c1ccc(Br)cc1`, the Potency was inconclusive: 17.8 µM. For `Nc1ccc(CCCCOc2ccccc2)cc1`, the Potency was inconclusive: 10 µM. For `O=[N+]([O-])c1ccc(O)c(/C=N/Nc2ccc([N+](=O)[O-])cc2[N+](=O)[O-])c1`, the Potency was inconclusive: 3.16 µM. In the case of `COc1cccc([N+](=O)[O-])c1[N+](=O)[O-]`, the Potency is reported as inconclusive: 31.6 µM.
